Reference: US20260384450A1, “MACROCYCLIC AMINOPYRIDINE COMPOUNDS AS EGFR INHIBITORS” (published 2026)

By UniProt entry, the sequences of proteins in these tests, tags left out. Where a name states a change or a piece, a line headed by the entry shows the natural chain unless it says otherwise. Chains listed by the source or under a name are the forms on record and can include a tag or linker. Residues count along the entry.
UniProt P00533, 25-1210 limits assumed: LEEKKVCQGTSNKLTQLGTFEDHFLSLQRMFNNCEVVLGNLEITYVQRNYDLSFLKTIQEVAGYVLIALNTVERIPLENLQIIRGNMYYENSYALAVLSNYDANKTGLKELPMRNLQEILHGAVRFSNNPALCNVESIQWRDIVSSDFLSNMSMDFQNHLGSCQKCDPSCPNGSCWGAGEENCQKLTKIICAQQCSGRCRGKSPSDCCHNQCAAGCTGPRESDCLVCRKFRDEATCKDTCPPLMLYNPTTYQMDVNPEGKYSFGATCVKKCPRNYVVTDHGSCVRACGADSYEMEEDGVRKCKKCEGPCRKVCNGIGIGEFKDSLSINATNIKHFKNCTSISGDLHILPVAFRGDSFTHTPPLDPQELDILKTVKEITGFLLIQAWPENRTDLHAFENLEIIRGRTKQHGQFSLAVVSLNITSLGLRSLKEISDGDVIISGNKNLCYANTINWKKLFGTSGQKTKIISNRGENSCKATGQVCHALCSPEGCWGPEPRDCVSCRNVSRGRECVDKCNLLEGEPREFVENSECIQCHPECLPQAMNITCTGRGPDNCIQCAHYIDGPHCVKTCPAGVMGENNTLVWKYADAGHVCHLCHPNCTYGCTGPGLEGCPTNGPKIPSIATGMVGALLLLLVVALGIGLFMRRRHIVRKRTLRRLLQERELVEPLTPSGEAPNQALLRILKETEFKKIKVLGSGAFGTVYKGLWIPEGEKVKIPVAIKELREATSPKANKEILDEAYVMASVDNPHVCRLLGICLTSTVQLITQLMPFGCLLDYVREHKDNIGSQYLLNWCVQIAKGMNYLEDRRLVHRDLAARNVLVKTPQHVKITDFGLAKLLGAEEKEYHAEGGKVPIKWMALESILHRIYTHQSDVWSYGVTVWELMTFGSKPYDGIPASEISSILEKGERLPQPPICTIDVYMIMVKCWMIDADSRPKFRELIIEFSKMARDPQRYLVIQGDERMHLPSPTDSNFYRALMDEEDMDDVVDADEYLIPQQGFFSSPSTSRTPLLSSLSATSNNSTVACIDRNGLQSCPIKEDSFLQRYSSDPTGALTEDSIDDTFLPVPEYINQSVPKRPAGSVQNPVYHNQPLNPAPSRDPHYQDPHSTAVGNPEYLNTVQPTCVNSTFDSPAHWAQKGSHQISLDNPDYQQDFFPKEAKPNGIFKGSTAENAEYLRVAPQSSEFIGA
UniProt P00533, 25-1210 C797S/L858R limits assumed: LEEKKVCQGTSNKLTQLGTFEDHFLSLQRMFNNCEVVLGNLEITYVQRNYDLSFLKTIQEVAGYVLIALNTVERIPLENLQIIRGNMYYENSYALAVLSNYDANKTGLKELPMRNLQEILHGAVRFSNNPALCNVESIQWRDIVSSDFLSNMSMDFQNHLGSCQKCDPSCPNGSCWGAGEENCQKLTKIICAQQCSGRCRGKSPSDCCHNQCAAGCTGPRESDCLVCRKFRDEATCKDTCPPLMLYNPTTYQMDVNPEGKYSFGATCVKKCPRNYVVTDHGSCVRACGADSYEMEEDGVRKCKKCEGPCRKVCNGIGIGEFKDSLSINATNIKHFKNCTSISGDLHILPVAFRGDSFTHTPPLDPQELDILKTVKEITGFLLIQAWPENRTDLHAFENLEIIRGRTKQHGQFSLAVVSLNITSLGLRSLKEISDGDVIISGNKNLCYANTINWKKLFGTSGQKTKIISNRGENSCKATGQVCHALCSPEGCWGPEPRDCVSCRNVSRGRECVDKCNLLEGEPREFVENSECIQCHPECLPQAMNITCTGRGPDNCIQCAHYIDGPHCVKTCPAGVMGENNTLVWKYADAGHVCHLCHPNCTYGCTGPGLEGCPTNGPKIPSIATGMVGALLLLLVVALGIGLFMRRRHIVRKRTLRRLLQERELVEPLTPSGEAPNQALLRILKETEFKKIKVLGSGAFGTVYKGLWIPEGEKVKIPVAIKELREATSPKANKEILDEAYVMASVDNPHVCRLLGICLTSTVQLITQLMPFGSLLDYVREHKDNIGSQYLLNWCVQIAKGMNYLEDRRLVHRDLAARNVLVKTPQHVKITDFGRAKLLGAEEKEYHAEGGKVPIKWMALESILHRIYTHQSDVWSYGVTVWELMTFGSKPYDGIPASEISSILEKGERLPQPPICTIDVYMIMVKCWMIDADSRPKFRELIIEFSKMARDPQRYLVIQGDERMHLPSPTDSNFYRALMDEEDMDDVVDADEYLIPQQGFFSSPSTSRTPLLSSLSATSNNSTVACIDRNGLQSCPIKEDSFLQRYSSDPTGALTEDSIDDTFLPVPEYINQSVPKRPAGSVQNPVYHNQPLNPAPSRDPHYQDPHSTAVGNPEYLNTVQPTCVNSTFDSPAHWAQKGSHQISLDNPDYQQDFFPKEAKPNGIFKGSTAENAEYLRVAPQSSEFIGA
UniProt P00533, 25-1210 T790M/C797S/L858R limits assumed: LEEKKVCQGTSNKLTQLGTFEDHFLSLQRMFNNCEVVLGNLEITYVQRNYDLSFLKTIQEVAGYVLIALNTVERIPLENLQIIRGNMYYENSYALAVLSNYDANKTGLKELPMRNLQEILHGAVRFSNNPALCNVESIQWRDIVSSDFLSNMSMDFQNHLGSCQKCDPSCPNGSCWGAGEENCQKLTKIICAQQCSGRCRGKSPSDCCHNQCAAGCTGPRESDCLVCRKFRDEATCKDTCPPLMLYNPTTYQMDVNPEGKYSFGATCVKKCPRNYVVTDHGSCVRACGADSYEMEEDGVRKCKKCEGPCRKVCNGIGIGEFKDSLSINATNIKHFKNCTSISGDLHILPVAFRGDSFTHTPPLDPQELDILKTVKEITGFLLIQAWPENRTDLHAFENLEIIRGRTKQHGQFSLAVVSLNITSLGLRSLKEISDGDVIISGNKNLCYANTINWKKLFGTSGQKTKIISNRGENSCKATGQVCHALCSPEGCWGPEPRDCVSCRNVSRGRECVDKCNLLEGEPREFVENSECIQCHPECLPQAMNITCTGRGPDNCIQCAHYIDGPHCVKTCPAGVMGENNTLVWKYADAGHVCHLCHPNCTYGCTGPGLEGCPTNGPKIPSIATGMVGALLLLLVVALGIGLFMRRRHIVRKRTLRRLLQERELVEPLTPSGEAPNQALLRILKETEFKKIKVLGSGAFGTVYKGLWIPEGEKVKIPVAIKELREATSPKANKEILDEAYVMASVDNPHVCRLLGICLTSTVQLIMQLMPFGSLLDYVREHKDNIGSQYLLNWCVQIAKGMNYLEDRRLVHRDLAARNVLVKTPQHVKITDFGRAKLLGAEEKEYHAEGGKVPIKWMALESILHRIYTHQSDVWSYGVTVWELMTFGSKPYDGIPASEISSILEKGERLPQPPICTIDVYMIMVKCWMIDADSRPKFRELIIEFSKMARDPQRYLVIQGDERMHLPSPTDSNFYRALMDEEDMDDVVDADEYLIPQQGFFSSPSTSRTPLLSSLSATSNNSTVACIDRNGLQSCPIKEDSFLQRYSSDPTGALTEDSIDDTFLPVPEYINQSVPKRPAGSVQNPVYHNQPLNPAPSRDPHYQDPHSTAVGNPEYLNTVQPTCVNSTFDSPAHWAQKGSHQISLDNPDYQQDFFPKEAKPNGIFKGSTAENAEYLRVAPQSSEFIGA
UniProt P00533, with tags, fused parts or gaps DEL746-750/C797S limits assumed: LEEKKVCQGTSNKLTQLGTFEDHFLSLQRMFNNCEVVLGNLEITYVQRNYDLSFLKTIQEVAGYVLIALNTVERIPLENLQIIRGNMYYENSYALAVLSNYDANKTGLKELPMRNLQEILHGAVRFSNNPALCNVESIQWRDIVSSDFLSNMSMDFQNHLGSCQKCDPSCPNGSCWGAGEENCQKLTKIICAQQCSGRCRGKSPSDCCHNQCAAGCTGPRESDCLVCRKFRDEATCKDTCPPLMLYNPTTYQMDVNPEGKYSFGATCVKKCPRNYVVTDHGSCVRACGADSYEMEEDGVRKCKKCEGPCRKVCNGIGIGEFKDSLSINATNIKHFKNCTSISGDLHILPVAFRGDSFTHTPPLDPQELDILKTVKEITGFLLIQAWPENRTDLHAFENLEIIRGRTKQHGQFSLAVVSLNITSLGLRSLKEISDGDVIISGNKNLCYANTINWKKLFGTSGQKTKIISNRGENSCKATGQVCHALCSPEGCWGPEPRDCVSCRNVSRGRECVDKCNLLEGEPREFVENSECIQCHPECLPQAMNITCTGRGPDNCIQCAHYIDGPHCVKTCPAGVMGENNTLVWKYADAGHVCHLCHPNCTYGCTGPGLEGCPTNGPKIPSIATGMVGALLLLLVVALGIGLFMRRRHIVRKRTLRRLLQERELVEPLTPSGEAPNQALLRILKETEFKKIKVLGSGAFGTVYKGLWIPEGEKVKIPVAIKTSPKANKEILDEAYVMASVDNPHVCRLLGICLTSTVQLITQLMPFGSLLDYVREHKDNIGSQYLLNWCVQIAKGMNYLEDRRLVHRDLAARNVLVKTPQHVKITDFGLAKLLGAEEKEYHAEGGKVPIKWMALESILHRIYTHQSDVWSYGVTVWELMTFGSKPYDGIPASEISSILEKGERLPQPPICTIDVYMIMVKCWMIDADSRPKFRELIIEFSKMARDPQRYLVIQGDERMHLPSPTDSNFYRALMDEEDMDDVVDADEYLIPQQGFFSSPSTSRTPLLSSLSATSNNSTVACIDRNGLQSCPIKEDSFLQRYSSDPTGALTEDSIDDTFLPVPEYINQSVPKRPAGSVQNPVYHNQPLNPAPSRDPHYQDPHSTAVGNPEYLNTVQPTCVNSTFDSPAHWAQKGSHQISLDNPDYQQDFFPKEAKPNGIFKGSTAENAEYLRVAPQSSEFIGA
UniProt P00533, with tags, fused parts or gaps DEL746-750/T790M/C797S limits assumed: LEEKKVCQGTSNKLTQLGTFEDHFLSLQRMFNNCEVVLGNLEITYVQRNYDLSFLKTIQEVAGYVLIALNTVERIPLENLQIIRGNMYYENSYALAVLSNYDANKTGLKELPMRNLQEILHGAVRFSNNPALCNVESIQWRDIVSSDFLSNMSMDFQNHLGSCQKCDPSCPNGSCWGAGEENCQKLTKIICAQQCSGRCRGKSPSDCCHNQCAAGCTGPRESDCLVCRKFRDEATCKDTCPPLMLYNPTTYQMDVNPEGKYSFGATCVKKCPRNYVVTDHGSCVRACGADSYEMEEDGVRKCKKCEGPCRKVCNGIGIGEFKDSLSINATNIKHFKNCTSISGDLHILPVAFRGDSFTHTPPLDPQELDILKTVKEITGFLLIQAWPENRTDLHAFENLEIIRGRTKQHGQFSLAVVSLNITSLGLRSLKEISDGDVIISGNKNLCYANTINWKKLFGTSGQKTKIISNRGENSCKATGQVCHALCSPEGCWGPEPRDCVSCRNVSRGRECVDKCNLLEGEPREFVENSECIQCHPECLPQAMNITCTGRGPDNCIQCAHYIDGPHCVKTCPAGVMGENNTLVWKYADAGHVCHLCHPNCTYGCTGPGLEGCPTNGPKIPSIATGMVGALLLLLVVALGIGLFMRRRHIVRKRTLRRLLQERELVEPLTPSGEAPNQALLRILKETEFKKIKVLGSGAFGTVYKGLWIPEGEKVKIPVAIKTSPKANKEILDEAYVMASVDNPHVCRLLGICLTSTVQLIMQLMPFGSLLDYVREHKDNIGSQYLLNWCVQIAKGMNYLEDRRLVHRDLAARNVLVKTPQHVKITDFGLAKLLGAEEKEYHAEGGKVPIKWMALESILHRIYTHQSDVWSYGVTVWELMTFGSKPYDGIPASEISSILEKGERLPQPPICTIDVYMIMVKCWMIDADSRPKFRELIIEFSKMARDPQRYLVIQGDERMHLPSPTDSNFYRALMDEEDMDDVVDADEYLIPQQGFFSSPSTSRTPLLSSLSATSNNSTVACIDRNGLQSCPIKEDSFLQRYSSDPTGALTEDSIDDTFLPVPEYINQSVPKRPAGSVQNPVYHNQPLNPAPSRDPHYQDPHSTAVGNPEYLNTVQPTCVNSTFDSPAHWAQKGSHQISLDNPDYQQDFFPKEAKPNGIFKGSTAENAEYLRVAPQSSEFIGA

Assays:
[1] = biological target: EGFR LRTMCS (L858R/T790M/C797S) (Homo sapiens, UniProt P00533, C797S/L858R/T790M); test: Biochemical EGFR kinase assay (Lance Ultra TR-FRET), triple mutant L858R/T790M/C797S
EGFR LRCS (L858R/C797S) = EGFR LRCS (L858R/C797S) (Homo sapiens, UniProt P00533, C797S/L858R); test: Biochemical EGFR kinase assay (Lance Ultra TR-FRET), double mutant L858R/C797S
[2] = biological target: EGFR D19TMCS (del19/T790M/C797S) (Homo sapiens, UniProt P00533, C797S/DEL746-750/T790M); test: Biochemical EGFR kinase assay (Lance Ultra TR-FRET), triple mutant del19/T790M/C797S
EGFR WT = EGFR WT (Homo sapiens, UniProt P00533); test: Biochemical EGFR kinase assay (Lance Ultra TR-FRET), wildtype
EGFR D19CS (del19/C797S) = EGFR D19CS (del19/C797S) (Homo sapiens, UniProt P00533, C797S/DEL746-750); test: Biochemical EGFR kinase assay (Lance Ultra TR-FRET), double mutant del19/C797S
[3] = read-out: EGFR LRTMCS IC50, ATP 1 mM
[4] = read-out: EGFR LRTMCS IC50, ATP Km
[5] = read-out: EGFR LRCS IC50, ATP 1 mM
[6] = read-out: EGFR LRCS IC50, ATP Km
[7] = read-out: EGFR D19TMCS IC50, ATP 1 mM
[8] = read-out: EGFR D19TMCS IC50, ATP Km
[9] = read-out: EGFR WT IC50, ATP 1 mM
[10] = read-out: EGFR D19CS IC50, ATP 1 mM
[11] = read-out: EGFR D19CS IC50, ATP Km
[12] = read-out: IC50, EGFR LRTMCS, 1 mM, ATP 1 mM, EGFR L858R/T790M/C797S
[13] = read-out: IC50, EGFR LRTMCS, Km, ATP at Km, EGFR L858R/T790M/C797S
[14] = read-out: IC50, EGFR-LRCS, 1 mM, ATP 1 mM, EGFR L858R/C797S
[15] = read-out: IC50, EGFR-LRCS, Km, ATP at Km, EGFR L858R/C797S
[16] = read-out: IC50, EGFR D19TMCS, Km, ATP at Km, EGFR del19/T790M/C797S
[17] = read-out: IC50, EGFR WT, 1 mM, ATP 1 mM, EGFR wildtype
[18] = read-out: IC50, EGFR WT, Km, ATP at Km, EGFR wildtype
[19] = read-out: IC50, EGFR-D19CS, 1 mM, ATP 1 mM, EGFR del19/C797S
[20] = read-out: IC50, EGFR-D19CS, Km, ATP at Km, EGFR del19/C797S

Measured: IC50

Cn1ncc2c1OCC1(CNc3cc(ncc3-c3ccn(C(F)F)n3)Nc3ccnc-2n3)COC1
100 to 1000 nM: EGFR LRCS (L858R/C797S); [5] | EGFR WT; read-out: EGFR WT IC50, ATP Km | EGFR D19CS (del19/C797S); [10]
10 to 100 nM: EGFR LRCS (L858R/C797S); [6] | EGFR D19CS (del19/C797S); [11]
< 10 nM: [1]; [3] | [1]; [4] | [2]; [7] | [2]; [8]
> 1000 nM: EGFR WT; [9]

Cc1nn(C)c2c1-c1nccc(n1)Nc1cc(c(-c3ncc(CN4C[C@H](CS(C)(=O)=O)[C@H]4C)cc3F)cn1)NCC[C@H](C)O2
10 to 100 nM: [1]; [12] | EGFR LRCS (L858R/C797S); [14] | EGFR WT; [18] | EGFR D19CS (del19/C797S); [19] | EGFR D19CS (del19/C797S); [20]
> 1000 nM: EGFR WT; [17]
< 10 nM: [1]; [13] | EGFR LRCS (L858R/C797S); [15] | [2]; [16]

C[C@H]1CCOc2c(cnn2C)-c2nccc(n2)Nc2cc(c(-c3ncc(CN4CCC(F)(CO)CC4)cc3F)cn2)N1
10 to 100 nM: EGFR LRCS (L858R/C797S); [5]
> 1000 nM: EGFR WT; [9]
< 10 nM: [1]; [3] | [1]; [4] | EGFR LRCS (L858R/C797S); [6] | [2]; [7] | [2]; [8] | EGFR WT; read-out: EGFR WT IC50, ATP Km | EGFR D19CS (del19/C797S); [10] | EGFR D19CS (del19/C797S); [11]

Cc1nn(C)c2c1-c1nccc(n1)Nc1cc(c(-c3ccc(C(F)(F)F)cn3)cn1)N[C@@H](C)CCO2
< 10 nM: [1]; [4] | [2]; [7] | [2]; [8]
> 1000 nM: EGFR LRCS (L858R/C797S); [5] | EGFR WT; [9] | EGFR WT; read-out: EGFR WT IC50, ATP Km
10 to 100 nM: [1]; [3] | EGFR D19CS (del19/C797S); [11]
100 to 1000 nM: EGFR LRCS (L858R/C797S); [6] | EGFR D19CS (del19/C797S); [10]

Cc1nn(C)c2c1-c1nccc(n1)Nc1cc(c(-c3cnc(CN4CCC(F)(F)CC4)cn3)cn1)NCC[C@H](C)O2
10 to 100 nM: EGFR LRCS (L858R/C797S); [14]
> 1000 nM: EGFR WT; [17]
< 10 nM: [1]; [12] | [1]; [13] | EGFR LRCS (L858R/C797S); [15] | [2]; [16] | EGFR WT; [18] | EGFR D19CS (del19/C797S); [19] | EGFR D19CS (del19/C797S); [20]

Cc1nn(C)c2c1-c1nccc(n1)Nc1cc(c(-c3ncc(CN4CCC(O)CC4)cc3F)cn1)NCC[C@H](C)O2
10 to 100 nM: EGFR LRCS (L858R/C797S); [14] | EGFR WT; [18] | EGFR D19CS (del19/C797S); [19]
< 10 nM: [1]; [12] | [1]; [13] | EGFR LRCS (L858R/C797S); [15] | [2]; [16] | EGFR D19CS (del19/C797S); [20]
> 1000 nM: EGFR WT; [17]

C[C@H]1CCNc2cc(ncc2-c2ncc(CN3CCN(C)CC3)cc2F)Nc2ccnc(n2)-c2cnn(C)c2O1
> 1000 nM: EGFR WT; [9]
< 10 nM: [1]; [3] | [1]; [4] | EGFR LRCS (L858R/C797S); [5] | EGFR LRCS (L858R/C797S); [6] | [2]; [7] | [2]; [8] | EGFR WT; read-out: EGFR WT IC50, ATP Km | EGFR D19CS (del19/C797S); [10] | EGFR D19CS (del19/C797S); [11]

Cc1nn(C)c2c1-c1nccc(n1)Nc1cc(c(-c3ncc(CN4CCC(C5(O)CC5)CC4)cc3F)cn1)N[C@@H](C)CCO2
> 1000 nM: EGFR WT; [17]
10 to 100 nM: EGFR LRCS (L858R/C797S); [14]
< 10 nM: [1]; [12] | [1]; [13] | EGFR LRCS (L858R/C797S); [15] | [2]; [16] | EGFR WT; [18] | EGFR D19CS (del19/C797S); [19] | EGFR D19CS (del19/C797S); [20]

Cc1nn(C)c2c1-c1nccc(n1)Nc1cc(c(-c3ncc(CN4CC5CS(=O)(=O)CC5C4)cc3F)cn1)NCC[C@H](C)O2 (stereo partly drawn)
> 1000 nM: EGFR WT; [17]
< 10 nM: [1]; [12] | [1]; [13] | EGFR LRCS (L858R/C797S); [15] | EGFR D19CS (del19/C797S); [20]
10 to 100 nM: EGFR LRCS (L858R/C797S); [14] | [2]; [16] | EGFR WT; [18] | EGFR D19CS (del19/C797S); [19]

Cc1nn(C)c2c1-c1nccc(n1)Nc1cc(c(-c3ncc(CN4C[C@H](CS(C)(=O)=O)[C@H]4C)cc3F)cn1)N[C@@H](C)CCO2
10 to 100 nM: [1]; [12] | EGFR LRCS (L858R/C797S); [14] | EGFR WT; [18] | EGFR D19CS (del19/C797S); [19]
< 10 nM: [1]; [13] | EGFR LRCS (L858R/C797S); [15] | [2]; [16] | EGFR D19CS (del19/C797S); [20]
> 1000 nM: EGFR WT; [17]

Cn1ncc2c1OC[C@@H](F)CNc1cc(ncc1-c1ccn(C(F)F)n1)Nc1ccnc-2n1
10 to 100 nM: [1]; [3] | EGFR LRCS (L858R/C797S); [6] | EGFR WT; read-out: EGFR WT IC50, ATP Km | EGFR D19CS (del19/C797S); [11]
< 10 nM: [1]; [4] | [2]; [7] | [2]; [8]
> 1000 nM: EGFR LRCS (L858R/C797S); [5] | EGFR WT; [9] | EGFR D19CS (del19/C797S); [10]

Cc1nn(C)c2c1-c1nccc(n1)Nc1cc(c(-c3ncc(CN4CC5(C4)CC5(F)F)cc3F)cn1)N[C@@H](C)CCO2
10 to 100 nM: EGFR WT; read-out: EGFR WT IC50, ATP Km | EGFR D19CS (del19/C797S); [10]
> 1000 nM: EGFR WT; [9]
< 10 nM: [1]; [3] | [1]; [4] | EGFR LRCS (L858R/C797S); [6] | [2]; [7] | [2]; [8] | EGFR D19CS (del19/C797S); [11]
100 to 1000 nM: EGFR LRCS (L858R/C797S); [5]

Where two headings read alike, the source gives them in different places.
